# From article PMC8477192, “An ionic lock and a hydrophobic zipper mediate the coupling between an insect pheromone receptor BmOR3 and downstream effectors” (The Journal of Biological Chemistry, 2021)
# T1: YFP-BmOR3 (Bombyx mori, UniProt Q5FBE0 1-439)
# T1 construct: BmOR3, pheromone (bombykal) receptor of Bombyx mori; also called N-terminal YFP-tagged BmOR3; YFP-WT-BmOR3; source: HEK293, transfected, in living cells; not shown: YFP, N-terminal, kept
# T1 sequence (looked up): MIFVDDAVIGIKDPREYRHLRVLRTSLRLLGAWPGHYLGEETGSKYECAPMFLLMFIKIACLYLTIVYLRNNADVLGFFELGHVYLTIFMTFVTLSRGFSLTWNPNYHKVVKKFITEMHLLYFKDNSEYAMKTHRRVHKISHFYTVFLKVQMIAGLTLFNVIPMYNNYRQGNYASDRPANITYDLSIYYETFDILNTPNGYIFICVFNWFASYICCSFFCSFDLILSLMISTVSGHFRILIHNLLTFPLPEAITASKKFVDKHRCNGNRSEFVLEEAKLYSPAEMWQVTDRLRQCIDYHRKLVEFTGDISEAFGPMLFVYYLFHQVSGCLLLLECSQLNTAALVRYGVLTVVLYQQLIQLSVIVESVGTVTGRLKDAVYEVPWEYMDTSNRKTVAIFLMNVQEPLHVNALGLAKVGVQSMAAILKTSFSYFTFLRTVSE
# Molecular target: T1, YFP-BmOR3
# Experiment: FRET or BRET; G protein recruitment BRET in living HEK293 cells; YFP-BmOR3 with Gi-Rluc; increasing bombykal for 2 min; net BRET after subtracting cells with Gi-Rluc only; net BRET also without bombykal; BmOrco coexpression without significant effect
# Details: partners not purified
binder,measurement,value
"Gi1-Rluc (natural protein, UniProt P63096 1-354, looked up, G protein alpha subunit Gi1 (Gαi1); also called Gαi-Rluc; Rluc-tagged Gi protein; source: HEK293, transfected, in living cells) MGCTLSAEDKAAVERSKMIDRNLREDGEKAAREVKLLLLGAGESGKSTIVKQMKIIHEAGYSEEECKQYKAVVYSNTIQSIIAIIRAMGRLKIDFGDSARADDARQLFVLAGAAEEGFMTAELAGVIKRLWKDSGVQACFNRSREYQLNDSAAYYLNDLDRIAQPNYIPTQQDVLRTRVKTTGIVETHFTFKDLHFKMFDVGGQRSERKKWIHCFEGVTAIIFCVALSDYDLVLAEDEEMNRMHESMKLFDSICNNKWFTDTSIILFLNKKDLFEEKIKKSPLTICYPEYAGSNTYEEAAAYIQCQFEDLNKRKDTKEIYTHFTCATDTKNVQFVFDAVTDVIIKNNLKDCGLF",EC50 of bombykal for the BRET increase,11.7 ± 1.19 nM
